# In patent publication US12337000B2, “Therapeutic modulators of the reverse mode of ATP synthase” (priority 2017, dated 2025):
# Chains of the proteins cited; added tags and fusions are not shown.
# UniProt P11712, whole entry: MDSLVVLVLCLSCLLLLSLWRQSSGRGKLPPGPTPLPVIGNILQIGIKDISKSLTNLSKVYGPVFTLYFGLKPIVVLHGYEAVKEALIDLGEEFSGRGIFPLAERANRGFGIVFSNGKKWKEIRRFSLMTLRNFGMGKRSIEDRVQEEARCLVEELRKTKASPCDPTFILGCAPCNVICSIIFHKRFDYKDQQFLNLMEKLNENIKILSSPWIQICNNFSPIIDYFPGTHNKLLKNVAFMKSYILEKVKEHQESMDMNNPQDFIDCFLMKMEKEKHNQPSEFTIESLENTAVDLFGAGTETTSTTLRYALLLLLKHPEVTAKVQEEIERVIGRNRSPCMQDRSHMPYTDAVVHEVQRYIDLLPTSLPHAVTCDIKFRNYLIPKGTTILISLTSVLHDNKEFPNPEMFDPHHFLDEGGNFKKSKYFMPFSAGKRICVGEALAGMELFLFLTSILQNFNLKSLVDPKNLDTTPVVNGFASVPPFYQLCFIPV
# What was measured:
# [1] = tested on: 59 cancer cell lines (NCI-60); test: NCI-60 one-dose in vitro assay; settings: 10 μM
# F1F0 ATP hydrolase = F1F0 ATP hydrolase (Bos taurus, UniProt P00829+P19483); settings: read-out: EC50 F1F0 ATP hydrolysis / hydrolase; SMP studies in [5-8]; cited from earlier work
# F1F0 ATP synthesis = F1F0 ATP synthesis (Bos taurus, UniProt P00829+P19483); settings: read-out: EC50 F1F0 ATP synthesis; SMP assays, [5-8]; cited from earlier work
# CYP2C9 = CYP2C9 (Homo sapiens, UniProt P11712); settings: cited from earlier work
smiles,measurement,setting,value
Cc1nc[nH]c1CN1c2ccccc2CN(S(=O)(=O)c2ccc(Cl)c(Cl)c2)CC1CCc1ccccc1 (stereo not shown),anti-cancer activity (in words),[1],Anti-cancer activity
same,EC50,F1F0 ATP hydrolase,0.022 µM
same,EC50,F1F0 ATP synthesis,> 30 µM
same,EC50,CYP2C9,2 µM
